Km data for 1 substance are collected here from article PMC3774744.

By Km is commonly meant the substrate concentration at which the rate is half of its maximum.

For this data set, the system named is CC(=O)OP(=O)(O)O. The data set is described as follows: purified protein. Particulars: pH 7.5; 25.0 °C.

Regarding (Vibrio cholerae O395), the Km turned out to be 6.4 ± 0.45 mM.
